Measured values reported in PMC5217372, “Activation of SsoPK4, an Archaeal eIF2α Kinase Homolog, by Oxidized CoA” (Proteomes, 2015).

Target: T1, rSsoPK4(284–635) (Saccharolobus solfataricus, UniProt Q97U41)
T1 construct: gene SSO3182; residues 284–635 (catalytic and part of central helical repeat domain), N-terminal S-tag, C-terminal 33-residue fusion domain with polyhistidine motif, pET-29b, expressed in E. coli
T1 sequence (Q97U41 284-635): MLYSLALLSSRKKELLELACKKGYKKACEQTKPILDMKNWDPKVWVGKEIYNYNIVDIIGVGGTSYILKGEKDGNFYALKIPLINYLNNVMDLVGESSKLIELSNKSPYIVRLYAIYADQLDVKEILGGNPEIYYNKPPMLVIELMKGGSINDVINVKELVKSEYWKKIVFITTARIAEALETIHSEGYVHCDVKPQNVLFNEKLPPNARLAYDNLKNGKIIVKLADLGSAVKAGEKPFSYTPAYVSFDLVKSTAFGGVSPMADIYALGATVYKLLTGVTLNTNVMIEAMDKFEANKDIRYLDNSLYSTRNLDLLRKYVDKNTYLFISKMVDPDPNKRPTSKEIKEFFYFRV
Assay: Filter paper [γ-32P]ATP kinase assay with MBP as phosphoacceptor, ATP routinely 100 µM, 5 mM MgCl2 and 5 mM MnCl2, 50 mM MOPS pH 7.0, 65 °C, in the presence of nucleotide effectors.
Format: biochemical
Description: Protein kinase activity was routinely assayed by the filter paper method of Corbin and Reimann as modified by Lower and Kennelly. The final volume of the assays was typically 50 μL. The quantity of rSsoPK4 assayed ranged from 0.1 to 5.0 µg. Both MgCl2 and MnCl2 were included at a final concentration of 5 mM each. The final concentration of [γ-^32P]ATP was 100 μM. The specific activity of the [γ-^32P]ATP generally ranged from 2 to 5 × 10^15 cpm/mol. Phosphoacceptor proteins were generally present at a concentration of 0.5–1.0 µg/µL. The assay mixture was typically incubated for a period of 30 min to one hour at 65 °C in 50 mM MOPS pH 7.0. On occasion, the proteins within the assay mixture were resolved by SDS-PAGE in order to identify the specific polypeptides that were phosphorylated. Radiolabeled species were visualized using an Instant Imager from Packard (Downers Grove, IL, USA).

IC50: 190 µM
Structure (SMILES): Nc1ncnc2c1ncn2[C@@H]1O[C@H](COP(=O)(O)OS(=O)(=O)O)[C@@H](O)[C@H]1O [Adenosine phosphosulfate, adenosine 5'-phosphosulfate]
